Measured affinities in a library of Ab-14 light chain variants

Target: peptide PDVDLGDISGINAS, taken from heptad repeat 2 (HR2) of SARS-CoV-2 spike.

The variants keep the heavy chain, the linker and the frameworks of Ab-14 (scFv order VH, three GGGGS repeats, VL).
VH: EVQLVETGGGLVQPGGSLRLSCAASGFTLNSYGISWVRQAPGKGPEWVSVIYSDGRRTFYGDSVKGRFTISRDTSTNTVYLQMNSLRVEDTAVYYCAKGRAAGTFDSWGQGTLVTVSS
VL: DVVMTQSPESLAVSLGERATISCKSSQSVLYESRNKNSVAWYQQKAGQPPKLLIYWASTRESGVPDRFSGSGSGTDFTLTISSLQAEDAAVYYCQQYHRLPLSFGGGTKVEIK

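Phage display of a naive human antibody library on the peptide gave the parent. Library AAYL50 holds single substitutions and randomly drawn double and triple substitutions in the CDRs. The assay is AlphaSeq: two haploid yeast populations carry antibody and antigen on their surface. Binding brings cells together so that they mate, and sequencing counts the barcode pairs among the diploids. Read counts were normalised to the haploid input and turned into Kd by a linear fit to BCL2-family pairs of known affinity, for each replicate. The assay was run in three technical replicates.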

Substitutions are numbered in sequence along the VL above, starting at 1 (not Kabat).
All variants listed here change Y31 of the VL, counted from its first residue.
The read-out is the apparent dissociation constant on a log10 scale (nM): the lower, the stronger.
A pair that was not seen in that replicate is written "nd"; this usually means weak binding, but a binder can also be missed.
As a blank, each scFv also met three strains without target: over library AAYL50, 18% of these pairings were detected, typically at 4.19 and seldom below 2.99.
For reference, the parent read 0.65 as the reference entry and 1.68 as a member of this library.

The variant S26F+S28T+Y31Q gave 1.00, 1.35, 1.26.
The variant Y31C+E61D+S62C gave 2.64, 3.24, 3.98.
The variant V29N+Y31V+E32L gave 4.08, 5.16, 5.01.
The variant Y31W+P101G gave 2.38, 1.90, 2.64.
The variant K24E+S28E+Y31S gave 1.21, 0.62, 0.87.
The variant V29Q+Y31N+L102P gave -0.07, 0.39, 0.17.
The variant Q27R+Y31R+K36M gave nd, 2.12, 3.24.
The variant Q27E+Y31T+P101W gave 1.83, 1.59, 1.48.
The variant Y31N+S33D+Q95K gave nd, nd, nd.
The variant Y31E+N37E gave 2.10, 2.39, 2.37.
The variant S26Q+Y31A+A57M gave 2.36, 2.33, 2.34.
The variant Q27D+Y31R+Y97P gave 3.56, 3.36, 3.77.
The variant Y31W+N35Y+S58D gave 1.50, 1.63, 1.47.
The variant S28G+Y31P+K36F gave 0.53, 0.74, 0.67.
The variant Y31H+T59N gave nd, nd, nd.
The variant Y31L+R34K+R60D gave 3.86, nd, 4.03.
The variant Y31G gave nd, nd, nd.
The variant K24A+S28L+Y31P gave -0.23, 0.43, -0.05.
The variant L30C+Y31G+S103H gave 0.97, 1.51, 1.39.
The variant S26N+Y31L+H98V gave 1.11, 1.04, 1.22.
The variant Y31E+Q96S+P101S gave 0.10, 0.49, 0.23.
The variant Y31N+K36L gave 0.43, 0.79, 0.48.
The variant Y31T+N37I+A57E gave 1.40, 1.37, 1.42.
The variant Y31H+W56G+S62L gave nd, nd, nd.
The variant S26T+Y31P+Q95G gave nd, 2.78, 3.31.
The variant S25R+Y31H+R34I gave 1.68, 1.67, 1.72.
The variant Y31L+N37D+R99T gave 1.38, 1.57, 1.67.
The variant Y31P+E32I gave nd, nd, nd.
The variant Y31H+Y97K gave 5.93, nd, nd.
The variant Y31S+S38N+E61I gave 1.51, 1.20, 1.37.
The variant Y31E+E32N gave 0.55, 0.57, 0.32.
The variant Y31T+S33C+T59W gave 1.76, 2.04, 2.89.
The variant Y31E+R34K+W56K gave 0.19, 0.42, 0.30.
The variant Y31L+N35Y+R60D gave nd, 4.13, nd.
The variant Y31E+W56D+Q95G gave 2.48, nd, nd.
The variant Y31G+N37D+V39P gave 4.59, 4.71, 5.22.
The variant Y31W+N37R+H98C gave 3.11, 2.59, 3.12.
The variant Y31P+R99F gave 1.45, nd, nd.

Repeated from above, the 2 best binders with a signal in all replicates:

changes	log10 Kd (nM) by replicate
K24A+S28L+Y31P	-0.23, 0.43, -0.05
V29Q+Y31N+L102P	-0.07, 0.39, 0.17

Source: Engelhart et al. 2022 (doi:10.1038/s41597-022-01779-4), MIT Lincoln Laboratory and A-Alpha Bio; data file from the FLAb repository.